These results are taken from PubChem BioAssay (NCI).

The structures appear in SMILES notation. This is a selection; strong and weak results do not stand in their true shares.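 Activity criterion: percent growth below 10, measured after cells in 96-well plates were exposed to a single compound concentration for 48 hours.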 Activity calls are given as the source filed them.

The test system of the assay is MDA-MB-468 breast. Kind of assay: NCI-60 one-dose screen, 48 h (100 = growth as untreated, 0 = no growth, -100 = all killed). The conditions noted are these: 10 µM unless noted.
As to `CC(/C=N/N=C(\N)N[N+](=O)[O-])=N\N=C(/N)N[N+](=O)[O-]`, the growth was inactive: 96.9%.

As for `O=P1(N(CCCl)CCCl)OCCC2CCCCN21` (centres undefined), the growth was inactive: 116%.

Regarding `CCOC(=O)NC(C)(CCC(C)(NC(=O)OCC)P(=O)(O)Nc1ncccn1)P(=O)(O)Nc1ncccn1` (centres undefined), the growth was inactive: 99.2% [100 µM].

On to `Fc1cccc(CNCCCl)c1`, for which the growth was inactive: 96.4%.

In the case of `Cc1ccc(Sc2ccc([N+](=O)[O-])cc2[N+](=O)[O-])c([N+](=O)[O-])c1`, the growth is inactive: 31%.

On to `COC(=O)c1ccc(N2CCOP2(=O)Cl)cc1O` (centres undefined), for which the growth is inactive: 108%.

Turning to `C/C(N)=N\P(=O)(OCc1ccccc1)OCc1ccccc1`, the growth was inactive: 95.9%.

For the molecule `Cn1c(=O)c2[nH]c(N(CCCl)CCCl)nc2n(C)c1=O`, the growth is inactive: 106%.

As to `c1cc(-c2nn[nH]n2)ccc1-c1nn[nH]n1`, the growth is inactive: 97.5%.

Consider `O=[N+]([O-])c1ccc(CCCCCCc2ccc([N+](=O)[O-])cc2[N+](=O)[O-])c([N+](=O)[O-])c1`, for which the growth was inactive: 96.3%.

Consider `CN(CCCl)/N=N/c1nc2c([nH]1)c(=O)n(C)c(=O)n2C`, for which the growth is inactive: 114%.

In the case of `Nc1ccccc1[As](=O)(O)c1ccccc1`, the growth is inactive: 103%.

Regarding `ClCCN1CCn2cnc3ncnc-3c21`, the growth was inactive: 112%.

Take `CN(C)P(=O)(N(C)C)n1c(Nc2ccccc2)nnc1-c1ccccc1`: the growth was inactive: 96.6%.

Take `CCN(CCCl)C(Cc1ccccc1)c1ccccc1` (centres undefined): the growth is inactive: 94.8%.

With `CC(C)=N/N=C(\N)N[N+](=O)[O-]`, the growth was inactive: 109%.

In the case of `N/C(=N/[N+](=O)[O-])N(CCBr)N=O`, the growth was inactive: 106%.

In the case of `CCCCOP(OCCCC)OCCCC`, the growth is inactive: 102%.

For the molecule `CC(C)N(CCCl)/N=N/c1nc2nc[nH]c(=O)c2[nH]1`, the growth is inactive: 118%.

With `O=[As](O)(c1ccccc1Br)c1ccccc1Br`, the growth is inactive: 105%.

`O=c1ccc(Oc2ccc([N+](=O)[O-])cc2[N+](=O)[O-])nn1-c1ccc([N+](=O)[O-])cc1[N+](=O)[O-]`: the growth was active: -59.6%.

Consider `O=C(c1ccccc1)C(NCCCl)c1ccccc1` (centres undefined), for which the growth is inactive: 106%.

`S=C(Nc1ccccc1)N(CCCl)CCCl`: the growth was inactive: 106%.

For `CCOCCN(CCCl)Cc1ccccc1`, the growth is inactive: 117%.

For the molecule `CCN(CCCl)Cc1ccccc1`, the growth is inactive: 104%.

With `COc1ccc([As](=O)(O)O)cc1`, the growth is inactive: 102%.

Take `Cc1ccccc1C(=O)N(CCCl)CCCl`: the growth is inactive: 92.1%.

As for `COC(=O)C1(C)COP(=O)(NCc2ccccc2)OC1` (centres undefined), the growth is inactive: 116%.

Consider `OP1OCCO1`, for which the growth is inactive: 107%.

Take `O=P1(N(CCCl)CCCl)Nc2ccccc2N1`: the growth was inactive: 105%.

With `Cc1ccccc1CN(CCCl)Cc1ccccc1C`, the growth was inactive: 100%.

Take `COP(=O)(OC)N(CCCl)CCCl`: the growth is inactive: 99.2%.

As for `CCCNC(=O)c1ccc(N(CCCl)CCCl)cc1`, the growth is inactive: 110%.

In the case of `CCN(CCCl)C1c2ccccc2-c2ccccc21`, the growth is inactive: 103%.
